Marks after values point to notes of the source that are not given here.
What was measured:
JIMT-1 = JIMT-1 xenograft in CB-17 SCID female model, tumor growth inhibition; type: in vivo, mouse
NCI-N87 = NCI-N87 xenograft in Balb/c nude female model, tumor growth inhibition; type: in vivo, mouse
From the text: Tumor Growth Inhibition (TGITV) is defined as: TGITV (%)=[1−(Ti−T0)/(Vi−V0)]×100% Ti refers to the mean tumor volume of treatment group measured at each indicated time points following treatment; T0 refers to the tumor volume of treatment group when grouping; Vi refers to the mean tumor volume of control group measured at each indicated time points following treatment; V0 refers to the tumor volume of control group when grouping. […] There were 8 animals per group, and the tumors were allowed to grow to about 184 mm^3. The ADC was then administered i.v., single dose at day 0, at dosages of 0.5 mg/kg, 1 mg/kg, 2 mg/kg, or 4 mg/kg. The animals were measured twice a week (BIW) for tumor volume and body weight. Data analysis was performed using GraphPad and two-way ANOVA.

Trastuzumab deruxtecan [ADC8]
TGI (%) (Day 27) (JIMT-1; 5 mg/kg i.v. at day 0 and 7, JIMT-1 in CB-17 SCID mice): 91.48* % | TGI (%) (Day 27) (JIMT-1; 10 mg/kg i.v. at day 0 and 7, JIMT-1 in CB-17 SCID mice): 101.02** % | TGI (%) (Day 20) (NCI-N87; 0.5 mg/kg i.v. single dose at day 0, NCI-N87 in Balb/c nude mice): 33.21** % | TGI (%) (Day 20) (NCI-N87; 1 mg/kg i.v. single dose at day 0, NCI-N87 in Balb/c nude mice): 51.90** % | TGI (%) (Day 20) (NCI-N87; 2 mg/kg i.v. single dose at day 0, NCI-N87 in Balb/c nude mice): 74.86* %

Reference: patent US20250387499A1, “LIGAND-PAYLOAD CONJUGATES” (priority 2022, published 2025)
